How the values were obtained:
Format in all cases: biochemical
PI3K γ = molecular target: T1, PI3K γ (Homo sapiens, UniProt P48736); assay: PI3K kinase inhibition assay (p110γ)
T1 construct: purchased Sigma
Method: Class I PI3-Ks can be either purchased (p110α/p85α, p110β/p85α, p110δ/p85α from Upstate, and p110γ from Sigma) or expressed as previously described (Knight et al., 2004). IC50 values are measured using either a standard TLC assay for lipid kinase activity (described below) or a high-throughput membrane capture assay. Kinase reactions are performed by preparing a reaction mixture containing kinase, inhibitor (2% DMSO final concentration), buffer (25 mM HEPES, pH 7.4, 10 mM MgCl2), and freshly sonicated phosphatidylinositol (100 μg/ml). Reactions are initiated by the addition of ATP containing 10 μCi of γ-32P-ATP to a final concentration 10 or 100 μM and allowed to proceed for 5 minutes at room temperature. For TLC analysis, reactions are then terminated by the addition of 105 μl 1N HCl followed by 160 μl CHCl3:MeOH (1:1). The biphasic mixture is vortexed, briefly centrifuged, and the organic phase is transferred to a new tube using a gel loading pipette tip precoated with CHCl3. This extract is spotted on TLC plates and developed for 3-4 hours in a 65:35 solution of n-propanol:1M acetic acid. The TLC plates are then dried, exposed to a phosphorimager screen (Storm, Amersham), and quantitated. For each compound, kinase activity is measured at 10-12 inhibitor concentrations representing two-fold dilutions from the highest concentration tested (typically, 200 μM).

Protein sequences, listed by entry. Tags and fused reporters are not part of them. Lines headed by an entry give the natural chain unless they say otherwise; changes in a name come on top.
UniProt P48736: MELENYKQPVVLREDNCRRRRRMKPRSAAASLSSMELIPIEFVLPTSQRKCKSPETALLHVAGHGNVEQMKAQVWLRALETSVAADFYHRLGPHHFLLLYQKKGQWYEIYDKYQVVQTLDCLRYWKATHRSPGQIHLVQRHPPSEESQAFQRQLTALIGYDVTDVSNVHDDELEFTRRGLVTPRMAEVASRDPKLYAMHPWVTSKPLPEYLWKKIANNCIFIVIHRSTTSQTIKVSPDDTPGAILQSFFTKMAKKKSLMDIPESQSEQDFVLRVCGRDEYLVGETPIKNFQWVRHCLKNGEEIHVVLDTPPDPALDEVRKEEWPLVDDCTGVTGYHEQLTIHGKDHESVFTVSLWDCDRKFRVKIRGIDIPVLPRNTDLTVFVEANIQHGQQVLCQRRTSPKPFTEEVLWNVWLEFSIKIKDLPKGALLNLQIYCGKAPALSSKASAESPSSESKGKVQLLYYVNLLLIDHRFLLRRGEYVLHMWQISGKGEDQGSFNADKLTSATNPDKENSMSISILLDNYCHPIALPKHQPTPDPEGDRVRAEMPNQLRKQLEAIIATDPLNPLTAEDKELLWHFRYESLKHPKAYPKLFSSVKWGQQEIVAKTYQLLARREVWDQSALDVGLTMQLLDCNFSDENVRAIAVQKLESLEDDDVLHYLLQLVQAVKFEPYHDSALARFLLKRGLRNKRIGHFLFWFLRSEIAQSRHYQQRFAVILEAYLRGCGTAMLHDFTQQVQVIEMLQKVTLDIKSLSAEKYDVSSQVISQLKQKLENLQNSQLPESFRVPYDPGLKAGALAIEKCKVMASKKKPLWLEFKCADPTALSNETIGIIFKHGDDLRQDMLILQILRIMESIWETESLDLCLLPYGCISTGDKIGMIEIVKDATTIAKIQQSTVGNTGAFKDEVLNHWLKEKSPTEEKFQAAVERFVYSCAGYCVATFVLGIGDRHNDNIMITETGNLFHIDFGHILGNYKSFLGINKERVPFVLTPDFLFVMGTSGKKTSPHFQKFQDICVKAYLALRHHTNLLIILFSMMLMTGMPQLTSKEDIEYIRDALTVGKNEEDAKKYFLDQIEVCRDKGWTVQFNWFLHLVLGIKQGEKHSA
UniProt O00329: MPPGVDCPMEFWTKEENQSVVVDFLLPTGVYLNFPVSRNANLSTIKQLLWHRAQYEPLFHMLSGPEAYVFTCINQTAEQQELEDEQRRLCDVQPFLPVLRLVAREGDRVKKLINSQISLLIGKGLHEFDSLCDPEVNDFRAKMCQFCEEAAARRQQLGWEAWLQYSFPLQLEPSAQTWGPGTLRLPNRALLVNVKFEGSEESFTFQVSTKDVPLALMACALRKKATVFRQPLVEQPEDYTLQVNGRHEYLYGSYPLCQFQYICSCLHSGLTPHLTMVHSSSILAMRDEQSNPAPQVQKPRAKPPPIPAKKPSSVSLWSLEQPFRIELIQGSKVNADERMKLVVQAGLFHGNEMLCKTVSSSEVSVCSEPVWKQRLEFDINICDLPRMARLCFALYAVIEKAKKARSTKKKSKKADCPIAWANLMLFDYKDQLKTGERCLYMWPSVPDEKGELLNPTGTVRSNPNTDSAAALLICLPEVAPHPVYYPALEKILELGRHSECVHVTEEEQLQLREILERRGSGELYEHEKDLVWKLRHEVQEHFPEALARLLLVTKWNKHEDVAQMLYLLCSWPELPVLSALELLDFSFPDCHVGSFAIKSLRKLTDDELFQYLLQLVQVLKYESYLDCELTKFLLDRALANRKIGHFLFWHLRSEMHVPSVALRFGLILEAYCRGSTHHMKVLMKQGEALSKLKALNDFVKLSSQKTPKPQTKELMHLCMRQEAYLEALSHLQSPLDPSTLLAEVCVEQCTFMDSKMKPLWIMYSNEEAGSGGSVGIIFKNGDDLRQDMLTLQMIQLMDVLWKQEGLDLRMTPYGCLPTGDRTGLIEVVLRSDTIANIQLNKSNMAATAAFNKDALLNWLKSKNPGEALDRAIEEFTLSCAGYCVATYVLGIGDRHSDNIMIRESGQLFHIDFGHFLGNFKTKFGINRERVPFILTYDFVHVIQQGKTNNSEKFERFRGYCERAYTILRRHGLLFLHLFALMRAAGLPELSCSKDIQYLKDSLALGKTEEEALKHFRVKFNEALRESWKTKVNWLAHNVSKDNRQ
UniProt P42338: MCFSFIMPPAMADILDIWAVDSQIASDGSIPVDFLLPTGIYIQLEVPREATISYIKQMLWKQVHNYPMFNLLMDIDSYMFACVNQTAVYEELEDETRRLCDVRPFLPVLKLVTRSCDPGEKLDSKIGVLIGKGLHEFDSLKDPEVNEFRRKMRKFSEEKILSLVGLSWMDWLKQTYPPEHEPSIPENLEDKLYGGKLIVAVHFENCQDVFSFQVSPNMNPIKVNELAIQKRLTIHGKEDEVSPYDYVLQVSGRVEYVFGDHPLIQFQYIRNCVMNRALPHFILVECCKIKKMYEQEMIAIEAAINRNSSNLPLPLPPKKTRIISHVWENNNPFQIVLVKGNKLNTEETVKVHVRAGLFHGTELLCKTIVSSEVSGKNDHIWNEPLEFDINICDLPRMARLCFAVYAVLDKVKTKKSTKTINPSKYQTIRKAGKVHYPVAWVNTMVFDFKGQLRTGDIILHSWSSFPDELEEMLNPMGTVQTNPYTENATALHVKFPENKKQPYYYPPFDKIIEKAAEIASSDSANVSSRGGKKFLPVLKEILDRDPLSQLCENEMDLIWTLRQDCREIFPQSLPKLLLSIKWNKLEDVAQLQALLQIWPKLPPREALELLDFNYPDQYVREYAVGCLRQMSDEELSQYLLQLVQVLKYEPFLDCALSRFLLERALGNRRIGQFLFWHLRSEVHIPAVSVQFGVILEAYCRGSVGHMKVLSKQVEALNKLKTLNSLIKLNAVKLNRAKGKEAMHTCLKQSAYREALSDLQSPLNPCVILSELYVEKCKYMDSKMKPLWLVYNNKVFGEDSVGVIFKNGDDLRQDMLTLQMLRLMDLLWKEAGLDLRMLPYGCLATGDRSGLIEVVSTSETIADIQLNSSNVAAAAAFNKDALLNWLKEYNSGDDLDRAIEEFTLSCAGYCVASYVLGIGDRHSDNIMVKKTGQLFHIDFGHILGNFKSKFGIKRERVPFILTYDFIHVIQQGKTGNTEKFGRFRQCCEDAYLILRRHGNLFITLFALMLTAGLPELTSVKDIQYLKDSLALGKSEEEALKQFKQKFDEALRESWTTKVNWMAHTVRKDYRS

PI3K δ = molecular target: T2, PI3K δ (Homo sapiens, UniProt O00329); assay: PI3K kinase inhibition assay (p110δ/p85α)
T2 construct: purchased Upstate

PI3K β = molecular target: T3, PI3K β (Homo sapiens, UniProt P42338); assay: PI3K kinase inhibition assay (p110β/p85α)
T3 construct: purchased Upstate

SMILES | IC50 (PI3K γ) [µM] | IC50 (PI3K δ) [µM] | IC50 (PI3K β) [µM]
CNc1noc2ccc(-c3nn(C(C)C)c4ncnc(N)c34)cc12 [compound 15] | > 10 | – | –
Nc1nc2cc(-c3nn(C4CC(O)C4)c4ncnc(N)c34)ccc2o1 (centres unmarked) [compound 26] | – | < 1 | < 1
CCOC(=O)C(C)n1nc(-c2ccc3oc(N)nc3c2)c2c(N)ncnc21 (centres unmarked) [compound 24] | > 10 | – | –
Nc1noc2ccc(-c3nn(CCN4CCOCC4)c4ncnc(N)c34)cc12 [compound 18] | > 10 | – | –

— US20140128599A1, “BENZOXAZOLE KINASE INHIBITORS AND METHODS OF USE” (Intellikine LLC La Jolla, priority 2008, published 2014)
